Measurements as given in patent US20200405697A1, “Antitumor Agent” (Taiho Pharmaceutical Co., Ltd, priority 2017, published 2020).

Test system: A549 (Human lung cancer cell line)
Assay: Effect of combination of sulfonamide compound and other antitumor agent (CellTiter-Glo, combination index): A549

For `O=c1[nH]c(=O)n([C@H]2C[C@H](O)[C@@H](CO)O2)cc1C(F)(F)F` [Trifluridine, trifluridine], the Fa value (Example Compound 14 4420 nM + Trifluridine 645 nM) was 0.8577, the Fa value (Example Compound 14 6640 nM + Trifluridine 969 nM) was 0.9068 and the Fa value (Example Compound 209A 952 nM + Trifluridine 646 nM) was 0.8235. The Fa value (Example Compound 209A 1430 nM + Trifluridine 970 nM) was 0.9021, the Fa value (Example Compound 235A 1170 nM + Trifluridine 646 nM) was 0.8250 and the Fa value (Example Compound 235A 1750 nM + Trifluridine 967 nM) was 0.8950.
